The results in this text go back to US20040018593A1 (published 2004).

Chains of the proteins cited; added tags and fusions are not shown. A line that says so, or that is headed by a name, gives the form on record, which may keep a tag or linker.
RELP/human IgG1 Fc fusion protein, one chain, as listed by the source limits assumed: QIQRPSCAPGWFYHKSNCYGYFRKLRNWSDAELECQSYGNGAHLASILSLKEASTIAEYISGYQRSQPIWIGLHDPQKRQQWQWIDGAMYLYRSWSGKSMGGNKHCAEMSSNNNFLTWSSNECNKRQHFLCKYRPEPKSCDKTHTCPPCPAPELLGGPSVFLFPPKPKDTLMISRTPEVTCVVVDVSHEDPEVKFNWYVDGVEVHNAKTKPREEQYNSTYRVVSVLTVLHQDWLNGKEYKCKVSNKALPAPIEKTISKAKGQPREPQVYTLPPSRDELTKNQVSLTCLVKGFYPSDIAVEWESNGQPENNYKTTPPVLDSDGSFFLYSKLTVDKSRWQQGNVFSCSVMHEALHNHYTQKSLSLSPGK

The assay deals with T1, RELP/human IgG1 Fc fusion protein.
T1 construct: Secreted from SP2/0 cells and purified on protein A. Coated at 10 ug/mL on EIA plates; also called RELP fusion protein; RELP-Fc fusion protein
The assay is described as follows: solid phase EIA, hybridoma supernatant on coated RELP fusion protein. How it is done:
To assess serum titers or supernatant activity, solid phase EIA assays were performed as follows: RELP fusion protein, human Fe or cA2 IgG1 Fe fusion protein (negative construct control) were coated at 10 μg/mL in 10 mM carbonate buffer, pH 9.6 on to 96-well EIA plates (Nunc) and incubated for overnight at 4° C. The plates were then washed three times in 0.15 M saline with 0.02% v/v Tween 20, the wells were then blocked with 1% (w/v) BSA (Sigma) in PBS, 200 μL/well for 1 hour at 37° C. Plates were used immediately or frozen at −20° C. for future use.
To screen the mouse immune sera for titers or growth positive hybridomas for specific reactivity, the diluted sera or undiluted supernatants from the growth positive hybridomas were incubated on all sets of coated plates at 50 μL/well at 37° C. for 1 hour. The plates were washed and then probed with 50 μL/well HRP-labeled goat anti-mouse IgG Fc specific antibody (lot #105H4819, Sigma) diluted 1:20,000 in 1% BSA-PBS for 30 minutes at 37° C. The plates were again washed and 100 μL/well of citrate-phosphate substrate solution (0.1M citric acid, 0.2M sodium phosphate, 0.01% H₂O₂, 1 mg/mL OPD (Sigma) was added for approximately 15 minutes at RT. The reaction was stopped by the addition of 25 μL/well, 4N H₂SO₄. The OD's were read at 490 nm by an automated plate spectrophotometer (Titertek).

B1: CNTO 4164 (antibody, IgG1, V domains shown)
VH: EIQLQQSGTELVRPGALVKLSCKASGFNIRDYYINWLKQRPEQGLEWIGWIDPENDDTVFDPKFQDKAILTADTSSNTVCLQLSSLTSEDTSVYYCAIKGNYYDGGAFANWGQGTLVTVSA
VL: DIQLTQSPASLSVSVGETVTITCRASENIYSNFAWYQQTQGKSPQLLVHGATSLADGVPSRFSGSGSGTQYFLRIDSLQSEDLGIYYCQHFWNTPYTFGGGTKLEIK
notes: Tested as undiluted hybridoma supernatant; also called anti-RELP Mab; RELP specific mab
Consider B1, for which the binding result is recorded as “binds”.

B2: CNTO 338 (antibody, IgG1, V domains shown)
VH: EVQLQQSGAELVRPGASVRLSCTVSGFNIEDDYIHWVKQRPEQGLEWIGWIDPETGNTQYASKFQGKATATSDTSSSTVYVHLSSLTSEDTAVYYCTTTSYYGSDEFVYWGQGTLVTVSA
VL: DIVLTQSPATLSVTPGDGVSLSCRASQSINNNLHWYHQKSHGSPRLLIKYSSQSISGIPSRFSGSGSGTDFTLTINNVETEDFGLYFCQQSNSWPLTFGAGTKLELK
notes: Tested as undiluted hybridoma supernatant; As printed they begin with Met and seem to include the leader peptide, but no cleavage site is stated; also called anti-RELP Mab; RELP specific mab
For the molecule B2, the binding result is recorded as “binds”.
